This passage reports IC50 results from patent publication US20150297615A1, “ANDROGEN RECEPTOR INACTIVATION CONTRIBUTES TO ANTITUMOR EFFICACY OF CYP17 INHIBITORS IN PROSTATE CANCER” (UNIVERSITY OF MARYLAND, BALTIMORE, priority 2008, published 2015).

The assay concerns LAPC4 cells. Put plainly: Cell proliferation assay (MTT), LAPC4 cells. The note with it: read-out: LAPC4 IC50 (μM), DHT −, without DHT, 7 days.

SMILES strings stand for the structures.

For `C[C@]12CCC(=O)C=C1CCC1C2CC[C@]2(C)C(n3cnc4ccccc43)=CCC12` (stereo partly shown), the IC50 is 3 µM.

By IC50 is commonly meant the concentration at which inhibition is half-maximal.
